Assay results published in US8815934B2 (dated 2014).

Amino acid sequences for entries named in this document (tags omitted).
UniProt P03372, whole entry: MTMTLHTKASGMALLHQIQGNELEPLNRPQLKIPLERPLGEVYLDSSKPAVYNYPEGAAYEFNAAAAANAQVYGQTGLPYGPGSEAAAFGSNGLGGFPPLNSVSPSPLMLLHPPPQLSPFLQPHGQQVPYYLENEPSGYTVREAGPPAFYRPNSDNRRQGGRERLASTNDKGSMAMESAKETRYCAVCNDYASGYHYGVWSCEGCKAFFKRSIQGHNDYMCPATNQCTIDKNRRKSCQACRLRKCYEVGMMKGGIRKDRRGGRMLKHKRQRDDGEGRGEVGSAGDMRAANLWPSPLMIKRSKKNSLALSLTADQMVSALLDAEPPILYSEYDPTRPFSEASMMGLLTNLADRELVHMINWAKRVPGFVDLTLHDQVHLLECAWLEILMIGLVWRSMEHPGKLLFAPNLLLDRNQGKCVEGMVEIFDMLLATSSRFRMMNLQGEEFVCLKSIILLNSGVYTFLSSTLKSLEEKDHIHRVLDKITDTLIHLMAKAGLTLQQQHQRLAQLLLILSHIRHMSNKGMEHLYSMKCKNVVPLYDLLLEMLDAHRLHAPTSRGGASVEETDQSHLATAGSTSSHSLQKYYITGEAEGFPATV

Molecular target: estrogen receptor (Homo sapiens (Human), UniProt P03372)
Assay: 2×VIT ERE infection luciferase assay

Infection Luciferase Activity, 1 uM + 17β estradiol (1 uM compound + 1 nM 17β-estradiol (estrogen antagonism)): 56% | Infection Luciferase Activity, 1 uM (1 uM compound alone, percentage of activity as compared to 17β-estradiol): −3%
Compound: COc1ccc(-c2c(C)c3cc(OC)ccc3n2Cc2ccc(OCCN3CCCCCC3)cc2)cc1 [No. 91, 1-[4-(2-Azepan-1-yl-ethoxy)-benzyl]-5-methoxy-2-(4-methoxy-phenyl)-3-methyl-1H-indole]
